For one compound, IC50 results are on record in patent US6071903A, “2,3,4,5-tetrahydro-1H-[1,4]-benzodiazepine-3-hydroxyamic acids” (American Cyanamid Company, priority 1999, dated 2000).

The chains behind the UniProt entries cited, without tags or fusion partners. Residues count along the entry.
UniProt P14780, 94-707: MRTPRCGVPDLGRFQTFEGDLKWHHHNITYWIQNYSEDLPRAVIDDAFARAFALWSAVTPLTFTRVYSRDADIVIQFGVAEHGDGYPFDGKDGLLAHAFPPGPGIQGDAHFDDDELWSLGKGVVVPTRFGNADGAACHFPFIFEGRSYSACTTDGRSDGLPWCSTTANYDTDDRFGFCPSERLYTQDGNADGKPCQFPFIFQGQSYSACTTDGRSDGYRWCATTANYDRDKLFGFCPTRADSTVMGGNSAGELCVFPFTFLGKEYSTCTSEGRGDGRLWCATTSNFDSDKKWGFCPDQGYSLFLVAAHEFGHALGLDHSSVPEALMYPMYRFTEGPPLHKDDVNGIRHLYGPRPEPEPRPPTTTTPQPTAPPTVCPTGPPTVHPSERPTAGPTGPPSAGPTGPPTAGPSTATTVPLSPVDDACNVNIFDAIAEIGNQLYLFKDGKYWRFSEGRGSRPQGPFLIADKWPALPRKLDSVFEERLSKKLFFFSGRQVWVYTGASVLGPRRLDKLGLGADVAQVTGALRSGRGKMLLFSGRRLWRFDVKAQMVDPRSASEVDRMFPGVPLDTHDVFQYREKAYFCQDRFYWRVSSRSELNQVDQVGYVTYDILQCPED

For the assay, the target named is MMP-9 (Homo sapiens, UniProt P14780). Description: In Vitro Gelatinase Assay (MMP-9). As to conditions: read-out: IC50 (nM) MMP-9; human neutrophil gelatinase B. The class given is biochemical.

Usually IC50 stands for the concentration that gives 50% inhibition. For `COc1ccc(S(=O)(=O)N2Cc3ccccc3N(C(=O)c3cccs3)CC2C(=O)NO)cc1` (stereo not shown) [Example 8, 4-(4-Methoxybenzenesulfonyl)-1-(2-thienylcarbonyl)-2,3,4,5-tetrahydro-1H-[1,4]benzodiazepine-3-carboxylic acid, Hydroxyamide], the 50% inhibitory concentration (IC50) stood at 1.1 nM.
